# Molecular target: T1, OX2 (Homo sapiens, UniProt O43614)
# By UniProt entry, the sequences of proteins in these tests, tags left out.
# UniProt O43614, whole entry: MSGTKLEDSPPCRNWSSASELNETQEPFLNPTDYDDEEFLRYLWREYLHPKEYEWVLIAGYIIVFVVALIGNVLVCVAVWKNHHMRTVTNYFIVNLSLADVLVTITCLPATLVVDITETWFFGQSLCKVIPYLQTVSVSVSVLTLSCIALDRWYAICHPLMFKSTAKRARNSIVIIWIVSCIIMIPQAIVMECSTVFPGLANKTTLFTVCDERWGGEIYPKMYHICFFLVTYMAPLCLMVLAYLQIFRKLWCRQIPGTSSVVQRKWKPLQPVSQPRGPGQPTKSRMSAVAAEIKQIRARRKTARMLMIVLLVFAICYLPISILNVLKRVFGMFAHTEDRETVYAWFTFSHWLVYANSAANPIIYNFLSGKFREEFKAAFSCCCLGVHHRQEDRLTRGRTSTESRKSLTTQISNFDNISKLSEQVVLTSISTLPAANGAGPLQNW
# T1 construct: expressed in transfected cells; host or cells: CHO (CHO-OX2, kept under selection antibiotic)
# Assay: Orexin receptor cell-based functional assay, [Ca2+]i by FLIPR, CHO-OX2 cells
# Details: CHO-OX2 cells, [Ca2+]i by FLIPR, antagonist dose-range 0.1 nM-10 μM, EC90 of OXA; read-out: OX2
row,IC50 [µM],SMILES
1,> 5,"Cc1ccc(-n2ccc(C)n2)c(C(=O)N2CCC[C@@H](C)[C@H]2CNc2ccc(C#N)cn2)c1 [Example A133, 6-((((2S,3R)-3-Methyl-1-(5-methyl-2-(3-methyl-1H-pyrazol-1-yl)benzoyl)piperidin-2-yl)methyl)amino)nicotinonitrile]"
2,> 5,"Cc1ccc(NC[C@@H]2[C@H](C)CCCN2C(=O)c2cc(C)ccc2-c2ncccn2)nc1 [Example A143, ((2S,3R)-3-Methyl-2-(((5-methylpyridin-2-yl)amino)methyl)piperidin-1-yl)(5-methyl-2-(pyrimidin-2-yl)phenyl)methanone]"
3,> 4,"Cc1nc(C(=O)N2CCC[C@@H](C)[C@H]2CNc2ccc(C(F)(F)F)cn2)c(-c2cccc(F)c2)s1 [Example A109, (5-(3-Fluorophenyl)-2-methylthiazol-4-yl)((2S,3R)-3-methyl-2-(((5-(trifluoromethyl)pyridin-2-yl)amino)methyl)piperidin-1-yl)methanone]"
4,0.14,"Cc1ccc(-n2cc(C)cn2)c(C(=O)N2CCC[C@@H](C)[C@H]2CNc2ccc(C(F)(F)F)cn2)c1 [Example A107, ((2S,3R)-3-Methyl-2-(((5-(trifluoromethyl)pyridin-2-yl)amino)methyl)piperidin-1-yl)(5-methyl-2-(4-methyl-1H-pyrazol-1-yl)phenyl)methanone]"
5,> 5,"C[C@@H]1CCCN(C(=O)c2ccc(F)cc2-n2nccn2)[C@@H]1CNc1ncc(C(F)(F)F)cn1 [Example A251, (4-Fluoro-2-(2H-1,2,3-triazol-2-yl)phenyl)((2S,3R)-3-methyl-2-(((5-(trifluoromethyl)pyrimidin-2-yl)amino)methyl)piperidin-1-yl)methanone]"
6,> 5,"C[C@@H]1CCCN(C(=O)c2c(F)cccc2-n2nccn2)[C@@H]1CNc1ccc(Cl)cn1 [Example A261, ((2S,3R)-2-(((5-Chloropyridin-2-yl)amino)methyl)-3-methylpiperidin-1-yl)(2-fluoro-6-(2H-1,2,3-triazol-2-yl)phenyl)methanone]"
7,> 5,"C[C@@H]1CCCN(C(=O)c2cc(Cl)ccc2-c2ncccn2)[C@@H]1CNc1ccc(C(F)(F)F)nn1 [Example A200, (5-Chloro-2-(pyrimidin-2-yl)phenyl)((2S,3R)-3-methyl-2-(((6-(trifluoromethyl)pyridazin-3-yl)amino)methyl)piperidin-1-yl)methanone]"
8,> 5,"C[C@@H]1CCCN(C(=O)c2cc(F)c(F)cc2-c2ncccn2)[C@@H]1CNc1ncc(Cl)cn1 [Example A244, ((2S,3R)-2-(((5-Chloropyrimidin-2-yl)amino)methyl)-3-methylpiperidin-1-yl) (4,5-difluoro-2-(pyrimidin-2-yl)phenyl)methanone]"
9,> 5,"COc1ccc(-n2nccn2)c(C(=O)N2CCC[C@@H](C)[C@H]2CNc2ncc(C(F)(F)F)cn2)c1F [Example A339, (2-Fluoro-3-methoxy-6-(2H-1,2,3-triazol-2-yl)phenyl)((2S,3R)-3-methyl-2-(((5-(trifluoromethyl)pyrimidin-2-yl)amino)methyl)piperidin-1-yl)methanone]"
10,> 1,"C[C@@H]1CCCN(C(=O)c2ccccc2-c2ncccn2)[C@@H]1CNc1ncc(C(F)(F)F)cn1 [Example A317, ((2S,3R)-3-Methyl-2-(((5-(trifluoromethyl)pyrimidin-2-yl)amino)methyl)piperidin-1-yl)(2-(pyrimidin-2-yl)phenyl)methanone]"
11,3.3,"Cc1ccc(-c2ncccn2)c(C(=O)N2CCC[C@@H](C)[C@H]2CNc2ncc(C(F)(F)F)cn2)c1 [Example A212, ((2S,3R)-3-Methyl-2-(((5-(trifluoromethyl)pyrimidin-2-yl)amino)methyl)piperidin-1-yl)(5-methyl-2-(pyrimidin-2-yl)phenyl)methanone]"
12,3.1,"Cc1nc(C(=O)N2CCCC(C)C2CNc2ncc(C(F)(F)F)cn2)c(-c2ccc(F)cc2)s1 (racemic) [Example A311, (+/−)-cis-(5-(4-Fluorophenyl)-2-methylthiazol-4-yl)(3-methyl-2-(((5-(trifluoromethyl)pyrimidin-2-yl)amino)methyl)piperidin-1-yl)methanone]"
13,1.1,"Cc1cccc(C(=O)N2CCC[C@@H](C)[C@H]2CNc2ccc(C(F)(F)F)cn2)c1-n1nccn1 [Example A266, ((2S,3R)-3-Methyl-2-(((5-(trifluoromethyl)pyridin-2-yl)amino)methyl)piperidin-1-yl)(3-methyl-2-(2H-1,2,3-triazol-2-yl)phenyl)methanone]"
14,> 5,"C[C@@H]1CCCN(C(=O)c2cc(F)c(F)cc2-n2nccn2)[C@@H]1CNc1ccc(C(F)(F)F)cn1 [Example A249, (4,5-Difluoro-2-(2H-1,2,3-triazol-2-yl)phenyl)((2S,3R)-3-methyl-2-(((5-(trifluoromethyl)pyridin-2-yl)amino)methyl)piperidin-1-yl)methanone]"
15,> 5,"Cc1ccc(-n2ncc(C)n2)c(C(=O)N2CCC[C@@H](C)[C@H]2CNc2ccc(C(F)(F)F)nn2)c1 [Example A125, ((2S,3R)-3-Methyl-2-(((6-(trifluoromethyl)pyridazin-3-yl)amino)methyl)piperidin-1-yl)(5-methyl-2-(4-methyl-2H-1,2,3-triazol-2-yl)phenyl)methanone]"
16,0.483,"Cc1cccc(C(=O)N2CCC[C@@H](C)[C@H]2CNc2ccc(C(F)(F)F)cn2)c1-c1ncccn1 [Example A298, ((2S,3R)-3-Methyl-2-(((5-(trifluoromethyl)pyridin-2-yl)amino)methyl)piperidin-1-yl)(3-methyl-2-(pyrimidin-2-yl)phenyl)methanone]"
17,> 5,"C[C@@H]1CCCN(C(=O)c2cc(F)c(F)cc2-n2nccn2)[C@@H]1CNc1ncc(C(F)(F)F)cn1 [Example A248, (4,5-Difluoro-2-(2H-1,2,3-triazol-2-yl)phenyl)((2S,3R)-3-methyl-2-(((5-(trifluoromethyl)pyrimidin-2-yl)amino)methyl)piperidin-1-yl)methanone]"

# Continued, molecule first:
row,SMILES,IC50 [µM]
1,"Cc1ccc(-n2nccn2)c(C(=O)N2CCC[C@@H](C)[C@H]2CNc2ccc(F)cn2)c1 [Example A47, ((2S,3R)-2-(((5-Fluoropyridin-2-yl)amino)methyl)-3-methylpiperidin-1-yl)(5-methyl-2-(2H-1,2,3-triazol-2-yl)phenyl)methanone]",> 5
2,"Cc1ccc(-n2nccn2)c(C(=O)N2CCC[C@@H](C)[C@H]2CNc2ncc(C(F)(F)F)cc2F)c1 [Example A82, ((2S,3R)-2-(((3-Fluoro-5-(trifluoromethyl)pyridin-2-yl)amino)methyl)-3-methylpiperidin-1-yl)(5-methyl-2-(2H-1,2,3-triazol-2-yl)phenyl)methanone]",0.84
3,"Cc1ccc(-c2ccccn2)c(C(=O)N2CCC[C@@H](C)[C@H]2CNc2ccc(C(F)(F)F)cn2)c1 [Example A9, ((2S,3R)-3-Methyl-2-(((5-(trifluoromethyl)pyridin-2-yl)amino)methyl)piperidin-1-yl)(5-methyl-2-(pyridin-2-yl)phenyl)methanone]",3.7
4,"Cc1ccc(-n2nccn2)c(C(=O)N2CCC[C@@H](C)[C@H]2CNc2nc3ccc(Cl)cc3o2)c1 [Example A14, ((2S,3R)-2-(((6-Chlorobenzo[d]oxazol-2-yl)amino)methyl)-3-methylpiperidin-1-yl)(5-methyl-2-(2H-1,2,3-triazol-2-yl)phenyl)methanone]",0.62
5,"Cc1cncc(-c2ccc(C)cc2C(=O)N2CCC[C@@H](C)[C@H]2CNc2ccc(C(F)(F)F)cn2)c1 [Example A5, ((2S,3R)-3-Methyl-2-(((5-(trifluoromethyl)pyridin-2-yl)amino)methyl)piperidin-1-yl)(5-methyl-2-(5-methylpyridin-3-yl)phenyl)methanone]",3.5

# Same assay, conditions: Table 2; CHO-OX2 cells, EC90 of OXA; read-out: IC50 Bioactivity OX2
row,IC50 [µM],SMILES
1,> 10,"Cc1ccc(-n2cncn2)c(C(=O)N2CCC[C@@H](C)[C@H]2CNc2ccc(C(F)(F)F)cn2)c1 (racemic) [Example 117, rac-cis-(3-Methyl-2-(((5-(trifluoromethyl)pyridin-2-yl)amino)methyl)piperidin-1-yl)(5-methyl-2-(1H-1,2,4-triazol-1-yl)phenyl)methanone]"
2,0.38,"Cc1cc2c(C(=O)NCC3CCCC(C)N3C(=O)c3nc(C)sc3-c3ccc(F)cc3)cccc2o1 (racemic) [Example 61, rac-N-((1-(5-(4-Fluorophenyl)-2-methylthiazole-4-carbonyl)-6-methylpiperidin-2-yl)methyl)-2-methylbenzofuran-4-carboxamide]"
3,0.04,"CC(=O)O[C@H]1C[C@@H](CNC(=O)c2cccc3cccnc23)N(C(=O)c2ccccc2-c2ccccc2)C1 [Example 131, (3S,5S)-1-([1,1′-Biphenyl]-2-carbonyl)-5-((quinoline-8-carboxamido)methyl)pyrrolidin-3-yl acetate]"
4,> 10,"C[C@@H]1CCCN(C(=O)c2ccccc2Oc2ccccc2)[C@@H]1CNc1ccc(C(F)(F)F)cn1 (racemic) [Example 118, rac-cis-(3-Methyl-2-(((5-(trifluoromethyl)pyridin-2-yl)amino)methyl)piperidin-1-yl) (2-phenoxyphenyl)methanone]"
5,0.37,"COc1c(F)cccc1C(=O)NCC1CCCC(C)N1C(=O)c1nc(C)sc1-c1ccc(F)cc1 (racemic) [Example 60, rac-3-Fluoro-N-((1-(5-(4-fluorophenyl)-2-methylthiazole-4-carbonyl)-6-methylpiperidin-2-yl)methyl)-2-methoxybenzamide]"
6,> 4,"Cc1nc(C(=O)N2CCC[C@@H](C)[C@H]2CNc2nc3ccccc3s2)c(-c2ccc(F)cc2)s1 (racemic) [Example 72, rac-cis-(2-((Benzo[d]thiazol-2-ylamino)methyl)-3-methylpiperidin-1-yl)(5-(4-fluorophenyl)-2-methylthiazol-4-yl)methanone]"

row,SMILES,IC50 [µM]
1,"O=C(NCC1CCC(F)CN1C(=O)c1ccccc1-c1ccccc1)c1cccc2cccnc12 (single isomer, unassigned) [Example 37, N-((1-(Biphenylcarbonyl)-5-fluoropiperidin-2-yl)methyl)quinoline-8-carboxamide]",0.003

# Reference: US9440982B2 (Eolas Therapeutics, Inc., priority 2012, dated 2016)
